Hits are enriched below; roughly 16% of the tested compounds scored in any of these assays.
TDP1 cell noCPT = qHTS for Inhibitors of human tyrosyl-DNA phosphodiesterase 1 (TDP1): qHTS in cells in absence of CPT; DT40 Tdp1-/- hTDP1 cells, no CPT, ATP luminescence, 48 h; Potency, µM (series often up to 46.2 µM), without a hit: at the top dose activity change, negative = growth inhibition, usual class: inhibitors; actives 15% (n = 420,000); also: potency is read from the fitted curve at half-maximal effect; % is scaled to controls: 0 for no effect and ±100 for the full control effect; nearly all actives have a fitted effect of over 55% in size
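Growth kinetics read by CellTiter-Glo luminescence after ≥48 hr at 37 °C. Cells: DT40 Tdp1-/- stably carrying human TDP1, 400 per well, compound exposure in the absence of CPT (DMSO vehicle).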
DT40 TDP1 CPT = growth inhibition of DT40 Tdp1-/-;hTDP1 cells with camptothecin (screen for TDP1 inhibitors) | chicken DT40 Tdp1-/-;hTDP1 cells + 20 nM CPT, ATP luminescence, 48 h | Potency, µM (highest dose often 46.2 µM), for the others: at the top dose activity change, negative = growth inhibition, hits mostly inhibitors | actives 12% (n = 420,000) | AID 686979; also: potency is read from the fitted curve at half-maximal effect; % is scaled to controls: 0 for no effect and ±100 for the full control effect; nearly all actives have a fitted effect of over 55% in size
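Chicken DT40 Tdp1-/- cells stably complemented with human TDP1 were seeded at 400 cells/well in medium containing 20 nM camptothecin, exposed to pin-transferred compounds, and grown at 37 °C for at least 48 hr. Viability was read as ATP luminescence.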
miR-21 reporter = miR-21 reporter, rising signal | HeLa miR-21 FLuc reporter, luciferase, 48 h | Potency, µM (doses to about 38.3 µM), inactives show at the top dose reporter change, positive = more light | 340,000 tested, under 10 active | AID 2288; active = well fitted rising curve with a large enough effect; inconclusive = small, poorly fitted or top-dose-only effect; inactive = no such curve, though single readings can be large or run the other way;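 note: % of control where 0% means no effect; miR-21 action dims this reporter so a rising signal means less miR-21 action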
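Using DMEM plus 10% FBS, HeLa miR-21-FLuc cells are incubated with test compounds (final up to about 40uM) for 48 hours; firefly luciferase signal is then imaged following reagent-mediated lysis.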
uPA surface inh = inhibitors of cell surface uPA generation | cell surface uPA generation assay, qHTS | actives 0.31% (n = 330,000) | Potency, µM (titrated, usually from 38.3 µM), inactives show at the highest dose activity change, negative = inhibition, actives largely listed as inhibitors; active = well fitted inhibition curve with a large enough effect; inconclusive = small, poorly fitted or top-dose-only effect; inactive = no such curve, though single readings can be large or run the other way; tested in mouse RAW 264.7 cells; also: potency is read from the fitted curve at half-maximal effect; % is scaled to controls: 0 for no effect and ±100 for the full control effect; nearly all actives have a fitted effect of over 55% in size
TDP1 block = blocks human tyrosyl-DNA phosphodiesterase 1. recombinant TDP1, AlphaScreen DNA substrate cleavage. Potency, µM (titrated, usually from 130 µM), for the others: at the highest dose activity change, negative = inhibition, actives largely listed as inhibitors. actives 0.28% (n = 350,000); also: potency is read from the fitted curve at half-maximal effect; % is scaled to controls: 0 for no effect and ±100 for the full control effect; nearly all actives have a fitted effect of over 40% in size
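AlphaScreen read-out: signal falls as enzyme removes the 3' tyrosine-FITC from a 5'-biotinylated DNA oligo (15 nM, 5 min, RT). Enzyme was E. coli-made recombinant Tdp1 at 1 nM, exposed to compound for 15 min beforehand; beads 10 ug/ml, 10 min.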
An asterisk follows results filed as active; [ ] = another dose, or the depositor's remark. Unless noted, calls follow the shape of the dose curve; as a rule, active = well fitted curve in the direction sought with a large enough effect; inconclusive = small, poorly fitted or top-dose-only effect, or another doubt; inactive = no such curve, though single readings can be large; an effect the other way counts as inactive or inconclusive.

`COc1ccc(-c2csc3ncnc(N4CCN(c5cccc(OC)c5)CC4)c23)cc1` gave TDP1 cell noCPT 18µM*, DT40 TDP1 CPT 16µM*, miR-21 reporter -5%, uPA surface inh 4% and TDP1 block 6%.
`c1ccc(-c2csc3ncnc(N4CCc5ccccc5C4)c23)cc1` gave TDP1 cell noCPT 16µM*, DT40 TDP1 CPT inconclusive, miR-21 reporter 20%, uPA surface inh 4% and TDP1 block -1%.
For c1ccc(-c2csc3ncnc(N4CCOCC4)c23)cc1 the results were TDP1 cell noCPT inconclusive, DT40 TDP1 CPT -12%, miR-21 reporter -1%, uPA surface inh 1% and TDP1 block 6%.
Screening Cc1cc2ncn(-c3ncnc4scc(-c5ccccc5)c34)c2cc1C returned TDP1 cell noCPT 18µM*, DT40 TDP1 CPT inconclusive, miR-21 reporter -1%, uPA surface inh 6% and TDP1 block 0%.
For COc1ccc(Cn2c(SCC(=O)NCc3ccc(Cl)cc3)nc3ccsc3c2=O)cc1 the results were TDP1 cell noCPT -22%, DT40 TDP1 CPT inconclusive, miR-21 reporter 0% and TDP1 block 0%.
`Cc1sc2ncn(CCC(=O)O)c(=O)c2c1C` gave TDP1 cell noCPT 12%, DT40 TDP1 CPT -12%, miR-21 reporter -11%, uPA surface inh 2% and TDP1 block -1%.
For Cc1sc2ncn(CCn3cnc4sc(C)c(C)c4c3=O)c(=O)c2c1C the results were TDP1 cell noCPT 21µM*, DT40 TDP1 CPT inconclusive, miR-21 reporter 1%, uPA surface inh 10% and TDP1 block -3%.
Screening Cc1ccc(-c2csc3ncnc(N4CCN(C)CC4)c23)cc1C returned TDP1 cell noCPT 12µM*, DT40 TDP1 CPT inconclusive, miR-21 reporter 3% and uPA surface inh 6%.
`COc1ccc(N2CCN(c3ncnc4scc(-c5ccc(C)cc5)c34)CC2)cc1` gave TDP1 cell noCPT inconclusive, DT40 TDP1 CPT inconclusive, miR-21 reporter 3%, uPA surface inh -2% and TDP1 block 4%.
Screening COc1ccc(-c2csc3ncnc(N4CCN(c5cccc(Cl)c5)CC4)c23)cc1 returned TDP1 cell noCPT 16µM*, DT40 TDP1 CPT inconclusive, miR-21 reporter 1%, uPA surface inh 11µM* and TDP1 block 2%.
COc1ccc(N2CCN(c3ncnc4scc(-c5ccccc5)c34)CC2)cc1 was read as TDP1 cell noCPT 16µM*, DT40 TDP1 CPT -15%, miR-21 reporter 16% and uPA surface inh -3%.
`CCCn1cnc2scc(-c3ccc(C)c(C)c3)c2c1=O` gave TDP1 cell noCPT 21µM*, DT40 TDP1 CPT inconclusive, miR-21 reporter -8%, uPA surface inh -6% and TDP1 block 0%.

Retrieved by structure from above:
`Cc1sc2ncn(CCC(=O)O)c(=O)c2c1C` gave TDP1 cell noCPT 12%, DT40 TDP1 CPT -12%, miR-21 reporter -11%, uPA surface inh 2% and TDP1 block -1%.
`COc1ccc(-c2csc3ncnc(N4CCN(c5cccc(OC)c5)CC4)c23)cc1` gave TDP1 cell noCPT 18µM*, DT40 TDP1 CPT 16µM*, miR-21 reporter -5%, uPA surface inh 4% and TDP1 block 6%.

New compounds follow
Screening COc1ccc(-c2csc3ncnc(N4CCN(c5cccc(C)c5C)CC4)c23)cc1 returned TDP1 cell noCPT inconclusive, DT40 TDP1 CPT 15µM*, miR-21 reporter -3%, uPA surface inh 2% and TDP1 block 6%[56.1 µM].
C=CCn1cnc2scc(-c3ccc(C)c(C)c3)c2c1=O was read as TDP1 cell noCPT inconclusive, DT40 TDP1 CPT -17%, miR-21 reporter -11%, uPA surface inh -15% and TDP1 block 6%.
For Cc1ccc(C(=O)NCCc2nnc3c(C(F)(F)F)cc(Cl)cn23)o1 the results were TDP1 cell noCPT 30%, DT40 TDP1 CPT -6%, miR-21 reporter 0%, uPA surface inh 2% and TDP1 block -7%.
Screening Cc1ccc(NC(=O)CSc2nc3ccccc3n2CC(=O)N2CCC(C)CC2)cc1C returned TDP1 cell noCPT 18µM*, DT40 TDP1 CPT inconclusive, miR-21 reporter 11% and TDP1 block 4%.
`Cc1cc2ccccc2n2c(SCC(=O)Nc3ccc(S(=O)(=O)N4CCC(C)CC4)cc3)nnc12` gave TDP1 cell noCPT 23µM*, DT40 TDP1 CPT 29µM*, miR-21 reporter -3%, uPA surface inh -10% and TDP1 block 5%.
`CCN(CC)C(=O)Cn1c(SCC(=O)Nc2ccc(C)c(C)c2)nc2ccccc21` gave TDP1 cell noCPT inconclusive, DT40 TDP1 CPT inconclusive, miR-21 reporter -8% and TDP1 block 9%.

Assay outcomes: PubChem, National Center for Advancing Translational Sciences (NCATS)
